For data set [1] the following is noted: rat, in vivo.
A short description of data set [2]: Intra-cerebral and blood concentrations of ^18 F-AFDG and its metabolites after intravenous injection. Details: species or system mice. The settings on record: mouse, in vivo. The method, then:
Mice were given an intravenous injection of 0.05 ml solution of 0.5 mM ^18 F-AFD in DMSO.

Some results are limits rather than exact numbers.

In the case of `OC[C@H]1OC(O)[C@H]([18F])[C@@H](O)[C@@H]1O` (stereo partly drawn) [^18 F-FDG, 2-^18 F-D-glucose], in data set [1], the “competition by glucose of transport to the cerebral tissue” value is recorded as “no competition even to the maximum concentration of glucose, 80 mM”; the “transport rate to the cerebral tissue” value is recorded as “higher than 90%”; the “transport rate to the cerebral tissue, effect of glucose concentration” value was “decreased inversely as the concentration of glucose was increased”. Also, in data set [2], the “time of emergence of intra-cerebral metabolites” value was not above 0.5 min.
